Test results as given in ChEMBL document CHEMBL5030542, “Pillar[5]arene-Based Polycationic Glyco[2]rotaxanes Designed as Pseudomonas aeruginosa Antibiofilm Agents” (J Med Chem, 2021).

What was measured:
[1] = molecular target: Fucose-binding lectin PA-IIL (Pseudomonas aeruginosa (strain ATCC 15692 / DSM 22644 / CIP 104116 / JCM14847 / LMG 12228 / 1C / PRS 101 / PAO1)) (UniProt Q9HYN5); assay: Binding affinity to recombinant Pseudomonas aeruginosa LecB expressed in Escherichia coli assessed as change in entropy by isothermal titration calorimetry
[2] = molecular target: Fucose-binding lectin PA-IIL (Pseudomonas aeruginosa (strain ATCC 15692 / DSM 22644 / CIP 104116 / JCM14847 / LMG 12228 / 1C / PRS 101 / PAO1)) (UniProt Q9HYN5); assay: Binding affinity to recombinant Pseudomonas aeruginosa LecB expressed in Escherichia coli assessed as change in enthalpy by isothermal titration calorimetry

`CO[C@@H]1O[C@@H](C)[C@@H](O)[C@@H](O)[C@@H]1O` was tested, and the deltaS [1] was 1.17 kcal/mol and the deltaH [2] was -9.87 kcal/mol.
